Reference: BindingDB's records for patent US20240287079 (Japan Tobacco, 2024)

Chains of the proteins cited; added tags and fusions are not shown.
UniProt Q96P20, whole entry: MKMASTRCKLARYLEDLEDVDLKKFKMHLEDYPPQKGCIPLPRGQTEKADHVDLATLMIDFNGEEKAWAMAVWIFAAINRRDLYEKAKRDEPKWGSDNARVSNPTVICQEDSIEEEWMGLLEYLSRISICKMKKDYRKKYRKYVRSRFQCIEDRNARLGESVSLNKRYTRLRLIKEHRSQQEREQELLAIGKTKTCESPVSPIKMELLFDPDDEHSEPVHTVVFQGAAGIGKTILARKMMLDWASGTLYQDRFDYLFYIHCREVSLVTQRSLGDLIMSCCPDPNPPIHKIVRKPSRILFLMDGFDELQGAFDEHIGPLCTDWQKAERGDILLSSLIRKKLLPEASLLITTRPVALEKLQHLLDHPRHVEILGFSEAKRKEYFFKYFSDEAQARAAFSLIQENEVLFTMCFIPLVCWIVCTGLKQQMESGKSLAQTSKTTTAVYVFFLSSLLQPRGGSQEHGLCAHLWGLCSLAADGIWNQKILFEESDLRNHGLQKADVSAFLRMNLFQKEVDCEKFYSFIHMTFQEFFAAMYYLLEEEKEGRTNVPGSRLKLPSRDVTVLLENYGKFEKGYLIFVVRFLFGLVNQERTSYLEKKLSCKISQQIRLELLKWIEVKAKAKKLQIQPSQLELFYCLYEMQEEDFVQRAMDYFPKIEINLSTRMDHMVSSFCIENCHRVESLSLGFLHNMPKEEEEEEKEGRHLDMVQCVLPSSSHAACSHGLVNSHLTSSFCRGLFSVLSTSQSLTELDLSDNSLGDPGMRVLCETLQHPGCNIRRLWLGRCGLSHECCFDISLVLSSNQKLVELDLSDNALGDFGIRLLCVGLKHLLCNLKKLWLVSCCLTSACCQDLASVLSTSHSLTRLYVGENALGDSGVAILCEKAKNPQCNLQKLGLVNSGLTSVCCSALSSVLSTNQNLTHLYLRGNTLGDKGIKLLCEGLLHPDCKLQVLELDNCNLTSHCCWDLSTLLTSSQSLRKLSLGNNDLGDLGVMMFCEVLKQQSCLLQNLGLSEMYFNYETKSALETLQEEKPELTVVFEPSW

Target: NACHT, LRR and PYD domains-containing protein 3 (Homo sapiens, UniProt Q96P20)
Test: Evaluation of NLRP3 Inflammasome Inhibitory Activity Assay
Description: The NLRP3 inflammasome inhibitory activity of test compounds were evaluated on the basis of the inhibitory activity of the IL-1β production in THP1-Null cells (Product Number: thp-null, InvivoGen). […] The supernatant of the culture was removed, and thereto was added media for assay (25 μL/well) containing 1 μg/mL Lipopolysaccharides (Product Number: L2654, Sigma-Aldrich (registered trademark)). […] The supernatant of the culture was removed. […] A solution containing a test compound (20 μL/well) was added to test compound-setting wells. […] The supernatant of the culture was cryonically stored (set at −20° C.) until measurement of IL-1β.

With `Cc1cc(Br)cc(C)c1-n1cc2c(=O)[nH]c(N3CCOCC3)nc2n1` [US20240287079, Example 94] as the compound, how does the IC50 read?
The IC50 was 6.5 nM.
